Assay: in vivo
Conditions: female, CD-1 IGS, mouse, iv, 0.3 mg/kg

SMILES: C=C=CC(=O)NCCCc1ccn2c(=O)cc(CNCc3ccc(-c4ccccc4)cc3)nc2c1O
- half-life: ~1.5 h

From ChEMBL document CHEMBL6134870 (J Med Chem, 2025)
